## AlphaSeq binding of Ab-14 light chain variants to a spike HR2 peptide

Antigen: PDVDLGDISGINAS, a 14-residue peptide of the SARS-CoV-2 spike HR2 region.

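The parent was found by panning a naive human phage display library on the peptide. These sequences belong to a second round, designed from the earlier measurements on random variants of the parent. Their group label is 14L_GP_Gen (GP: Gaussian process model; Gen: genetic algorithm; a sequence that several methods proposed may carry one label only). The assay is AlphaSeq: two haploid yeast populations carry antibody and antigen on their surface. The frequency of each diploid, read from paired DNA barcodes, reflects how well the two displayed proteins bind. Scores were corrected for input abundance and mapped to Kd with protein pairs of known affinity run in the same pool. The assay was run in six technical replicates.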

Each scFv is VH, a (GGGGS)3 linker, VL, as in the parent Ab-14, and differs from it in the CDRs of the light chain only.
VH: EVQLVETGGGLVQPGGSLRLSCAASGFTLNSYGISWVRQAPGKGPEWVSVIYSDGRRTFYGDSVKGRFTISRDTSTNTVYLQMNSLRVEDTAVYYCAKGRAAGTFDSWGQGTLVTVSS
VL: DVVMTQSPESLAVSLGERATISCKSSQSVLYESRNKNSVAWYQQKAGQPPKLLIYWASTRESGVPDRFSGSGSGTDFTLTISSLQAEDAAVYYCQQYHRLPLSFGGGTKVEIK

The parent's light chain CDRs are KSSQSVLYESRNKNSVA, WASTRES, QQYHRLPLS; each variant's own CDRs replace them letter for letter. The read-out is the apparent dissociation constant on a log10 scale (nM): the lower, the stronger. The mean shown is taken over the replicates in which the pair was detected. Of ten entries with the parent sequence, four were seen in most replicates (averages 0.34 to 2.37), three in one and three in none, so single entries are noisy. The authors averaged sequences with at least three values out of six and counted those with two or fewer as poor binders. Nonspecific signal, from three strains lacking the peptide, appeared in 4% of pairings of all light chain designs, centred on 2.64 (5% of these signals below 1.59); values are not corrected for it. The control count says in how many pairings with the empty strains this scFv gave a signal, with their mean in brackets. Values of this round are not directly comparable with the first-round values of the same sequences.

| # | CDR-L1 | CDR-L2 | CDR-L3 | replicates, log10 nM | mean log10 Kd (nM) | signal with controls |
|---|---|---|---|---|---|---|
| 1 | KLSQSVLYESRNKNSVA | EASTRES | QCYHRLPLS | 0.66 / 0.66 / 0.30 / 0.60 / 0.36 / 0.91 | 0.58 | 1 of 18 (1.97) |
| 2 | KVSQSVLYEERNKNSVA | HASTRES | QQYHRLPLS | 0.18 / -0.11 / 0.01 / -0.22 / -0.10 / 0.22 | 0.00 | 0 of 18 |
| 3 | KVSQSVLYEWRNKNSVA | NASTRES | QQYHRLPLS | 0.57 / 0.17 / 0.05 / 0.29 / 0.12 / 0.36 | 0.26 | 2 of 18 (1.95) |
| 4 | KLSQSMPYESRNKNSVA | NASTRLS | QQYHRLPLS | -0.20 / -0.17 / -0.10 / -0.02 / -0.21 / 0.34 | -0.06 | 1 of 18 (2.33) |
| 5 | KLQQSVLYESRNKNSVA | NASTRSS | QQYHRLPLS | -0.28 / -0.30 / -0.11 / -0.35 / -0.23 / -0.09 | -0.23 | 1 of 18 (1.43) |
| 6 | KLSQSWLYESRMKNSVA | NASQREQ | QQYHRLPLS | 0.15 / 0.06 / -0.04 / -0.02 / 0.11 / 0.17 | 0.07 | 3 of 18 (3.46) |
| 7 | KLSQSVLYESRQKNSVA | NASTREV | QQYHRLPLS | -0.16 / -0.23 / -0.50 / -0.22 / -0.27 / -0.15 | -0.25 | 1 of 18 (2.85) |
| 8 | KLSQSVDYESRNKNSVA | SASTRES | QQYHRLPLS | 0.26 / 0.17 / -0.19 / -0.10 / 0.05 / 0.02 | 0.04 | 2 of 18 (2.02) |
| 9 | KLDQSQLYESRNKNSVA | SASTRES | QQYHRLPLS | -0.01 / -0.24 / 0.14 / 0.15 / -0.13 / -0.18 | -0.05 | 0 of 18 |
| 10 | KLSQSPLYESRNKNSVA | DASTRES | QQYHRLPLS | -0.15 / -0.28 / -0.25 / -0.37 / -0.37 / -0.14 | -0.26 | 3 of 18 (2.73) |
| 11 | KLSQSDLYESRNKNSVA | HASTRCS | QQYHRLPLS | -0.27 / -0.09 / -0.05 / -0.38 / -0.32 / -0.18 | -0.21 | 0 of 18 |
| 12 | KLSQSVLMESRNKNSVA | NASTRLS | QQYHRLPLS | -0.41 / -0.60 / -0.47 / -1.09 / -0.47 / -0.16 | -0.53 | 0 of 18 |
| 13 | KLSQSHLYESRNFNSVA | NASTRES | QQYHRLPLS | 0.13 / 0.15 / 0.09 / 0.05 / -0.10 / 0.23 | 0.09 | 0 of 18 |
| 14 | KLMQSHLYESRNKNSVA | NASTRMS | QQYHRLPLS | 0.39 / 0.40 / 0.30 / 0.29 / 0.16 / 0.31 | 0.31 | 2 of 18 (4.04) |
| 15 | KLSQSVLMESRNKNSVA | NASTRES | QQYHRLPLS | 0.08 / 0.42 / 0.25 / 0.94 / 0.17 / 0.16 | 0.34 | 0 of 18 |
| 16 | KMSQSVLYEDRNKNSVA | NASTRMS | QQYHRLPLS | 0.14 / -0.06 / -0.13 / -0.37 / -0.20 / 0.14 | -0.08 | 1 of 18 (1.94) |
| 17 | KVPQSELYESRNKNSVA | NASQRES | QQYHRLPLS | 0.82 / 0.66 / 0.69 / 0.70 / 1.02 / 0.82 | 0.78 | 2 of 18 (2.82) |
| 18 | KVSQSVLYESRNKNSVA | DASTRMS | QQYHRLPLS | -0.20 / -0.29 / -0.41 / -0.39 / -0.35 / -0.29 | -0.32 | 1 of 18 (2.55) |
| 19 | KLSQSDLYQSRNKNSVA | NASTRES | QQYHRLPLS | 0.39 / 0.45 / 0.06 / -0.07 / 0.12 / 0.46 | 0.24 | 0 of 18 |
| 20 | KLQQSVGYESRNKNSVA | NASQRES | QQYHRLPLS | 0.12 / -0.02 / -0.05 / -0.05 / -0.10 / 0.18 | 0.01 | 1 of 18 (3.80) |
| 21 | KLSQSVLYESRMKNNVA | EASTRES | QQYHRLPLS | 0.12 / -0.01 / -0.04 / -0.33 / -0.06 / -0.09 | -0.07 | 2 of 18 (3.05) |
| 22 | KLSQSVLYESRNKNSVA | HASTRED | QQYHRLPLS | -0.04 / -0.11 / -0.38 / -0.24 / -0.34 / 0.06 | -0.18 | 0 of 18 |
| 23 | KLSQSQLYESRNKWSVA | NASTRES | QQYHRLPLS | 0.20 / 0.04 / -0.04 / -0.05 / 0.01 / 0.11 | 0.04 | 1 of 18 (3.38) |
| 24 | KLDQSELYESRNKNSVA | GASTRES | QQYHRLPLS | -0.35 / -0.44 / -0.54 / -0.54 / -0.55 / -0.32 | -0.46 | 0 of 18 |
| 25 | KLSQQVLYESRNKNSVA | GASTRES | QQYHRLPLS | -0.04 / -0.04 / -0.25 / -0.01 / -0.13 / 0.22 | -0.04 | 1 of 18 (2.16) |
| 26 | KLSQSVLYEDRNKNSVA | NASQRMS | QQYHRLPLS | -0.48 / 0.07 / -0.19 / -0.34 / -0.06 / 0.18 | -0.14 | 0 of 18 |
| 27 | KFSQSVLYESRNKWSVA | NASTRES | QQYHRLPLS | 0.25 / 0.08 / 0.22 / -0.24 / -0.03 / 0.05 | 0.06 | 1 of 18 (1.95) |
| 28 | KLSQSDLYESRNKNSVA | EASTRLS | QQYHRLPLS | 0.01 / -0.16 / -0.25 / -0.29 / -0.22 / 0.03 | -0.15 | 2 of 18 (3.51) |
| 29 | KVPQSTLYESRNKNSVA | NASTRES | QQYHRLPLS | -0.28 / -0.40 / -0.52 / -0.49 / -0.46 / -0.25 | -0.40 | 2 of 18 (2.98) |
| 30 | KLSQSELYESRNKNSVA | GASTRLS | QQYHRLPLS | -0.08 / -0.35 / -0.04 / -0.52 / -0.61 / -0.31 | -0.32 | 1 of 18 (2.30) |
| 31 | KLMQSEPYESRNKNSVA | NASTRES | QQYHRLPLS | 0.07 / -0.03 / -0.18 / -0.14 / -0.11 / 0.06 | -0.06 | 5 of 18 (2.94) |
| 32 | KLQQSMLYESRNKNSVA | HASTRES | QQYHRLPLS | 0.06 / -0.09 / 0.00 / -0.22 / -0.07 / 0.45 | 0.02 | 1 of 18 (3.68) |
| 33 | KLSQSWLYESRNKNSVA | NASERES | QQYHRLPLS | -0.15 / -0.29 / -0.36 / -0.26 / -0.31 / -0.30 | -0.28 | 1 of 18 (1.68) |
| 34 | KLSQSVLYESRNKNNVA | NASTREE | QQYHRLPLS | -0.39 / -0.37 / -0.70 / -0.62 / -0.60 / -0.41 | -0.52 | 0 of 18 |
| 35 | KLSQSFLYESRNKNAVA | NASTRES | QQYHRLPLS | -0.03 / -0.04 / -0.26 / -0.33 / -0.24 / -0.14 | -0.17 | 0 of 18 |
| 36 | KMSQSELYESRNKNSVA | NASQRES | QQYHRLPLS | 0.23 / 0.56 / -0.20 / -0.19 / 0.53 / 0.17 | 0.18 | 0 of 18 |
| 37 | KLSQSDLYESRNKNSVA | EASERES | QQYHRLPLS | 0.04 / -0.15 / -0.23 / -0.06 / -0.21 / 0.20 | -0.07 | 0 of 18 |
| 38 | KVSQSVLYEERNKNSVA | EASTRES | QQYHRLPLS | -0.03 / -0.11 / -0.20 / -0.26 / -0.35 / -0.09 | -0.17 | 0 of 18 |
| 39 | KLSMSWLYESRNKNSVA | HASTRES | QQYHRLPLS | 0.64 / 0.40 / 0.30 / 0.39 / 0.16 / 0.60 | 0.42 | 0 of 18 |
| 40 | KLSQSVLYESRNKNSVA | NASTREA | QQYHRLPLS | 0.08 / -0.23 / -0.32 / 0.12 / -0.33 / -0.03 | -0.12 | 0 of 18 |
| 41 | KLDQSQLYESRNKNSVA | HASTRES | QQYHRLPLS | 0.19 / 0.09 / 0.00 / -0.03 / -0.01 / 0.20 | 0.07 | 3 of 18 (2.98) |
| 42 | KVSQSFLYEQRNKNSVA | EASTRES | QQYHRLPLS | 0.31 / -0.01 / -0.32 / -0.13 / -0.18 / 0.29 | -0.01 | 0 of 18 |
| 43 | KLSQSVLYESRNKNSVA | NASQRES | QQYHRLPLS | 0.28 / 0.12 / 0.16 / 0.07 / 0.22 / 0.29 | 0.19 | 1 of 18 (1.97) |
| 44 | KLAQSVLYESRNKNSVA | NASQRES | QQYHRLPLS | 0.07 / -0.28 / -0.21 / -0.34 / -0.42 / -0.13 | -0.22 | 1 of 18 (2.46) |
| 45 | KLSDSVLYESRNKNSVA | EASTRES | QQYHRLPLS | 0.02 / -0.24 / -0.41 / -0.30 / -0.54 / -0.20 | -0.28 | 0 of 18 |
| 46 | KLSQSMLYESRNSNSVA | NASTRES | QQYHRLPLS | -0.50 / -0.65 / -0.85 / -0.59 / -0.88 / -0.63 | -0.68 | 0 of 18 |
| 47 | HLSQSELYESRNKNSVA | NASTRLS | QQYHRLPLS | -0.32 / -0.45 / -0.49 / -0.58 / -0.49 / -0.13 | -0.41 | 1 of 18 (2.14) |
| 48 | KLSYSVLYESRNKNSVA | EASTRES | QQYHRLPLS | -0.27 / -0.31 / -0.28 / -0.55 / -0.34 / -0.32 | -0.34 | 0 of 18 |

The first 6 entries again:

| CDR-L1 | CDR-L2 | CDR-L3 | replicates, log10 nM | mean log10 Kd (nM) | signal with controls |
|---|---|---|---|---|---|
| KLSQSVLYESRNKNSVA | EASTRES | QCYHRLPLS | 0.66 / 0.66 / 0.30 / 0.60 / 0.36 / 0.91 | 0.58 | 1 of 18 (1.97) |
| KVSQSVLYEERNKNSVA | HASTRES | QQYHRLPLS | 0.18 / -0.11 / 0.01 / -0.22 / -0.10 / 0.22 | 0.00 | 0 of 18 |
| KVSQSVLYEWRNKNSVA | NASTRES | QQYHRLPLS | 0.57 / 0.17 / 0.05 / 0.29 / 0.12 / 0.36 | 0.26 | 2 of 18 (1.95) |
| KLSQSMPYESRNKNSVA | NASTRLS | QQYHRLPLS | -0.20 / -0.17 / -0.10 / -0.02 / -0.21 / 0.34 | -0.06 | 1 of 18 (2.33) |
| KLQQSVLYESRNKNSVA | NASTRSS | QQYHRLPLS | -0.28 / -0.30 / -0.11 / -0.35 / -0.23 / -0.09 | -0.23 | 1 of 18 (1.43) |
| KLSQSWLYESRMKNSVA | NASQREQ | QQYHRLPLS | 0.15 / 0.06 / -0.04 / -0.02 / 0.11 / 0.17 | 0.07 | 3 of 18 (3.46) |

The measurements come from Li et al. 2023 (doi:10.1038/s41467-023-39022-2) through the FLAb antibody collection.